Reference: patent US20040176468A1 (Wyeth, priority 1999, published 2004)

Amino acid sequences for entries named in this document (tags omitted). Residues count along the entry.
UniProt Q63380, 1-617: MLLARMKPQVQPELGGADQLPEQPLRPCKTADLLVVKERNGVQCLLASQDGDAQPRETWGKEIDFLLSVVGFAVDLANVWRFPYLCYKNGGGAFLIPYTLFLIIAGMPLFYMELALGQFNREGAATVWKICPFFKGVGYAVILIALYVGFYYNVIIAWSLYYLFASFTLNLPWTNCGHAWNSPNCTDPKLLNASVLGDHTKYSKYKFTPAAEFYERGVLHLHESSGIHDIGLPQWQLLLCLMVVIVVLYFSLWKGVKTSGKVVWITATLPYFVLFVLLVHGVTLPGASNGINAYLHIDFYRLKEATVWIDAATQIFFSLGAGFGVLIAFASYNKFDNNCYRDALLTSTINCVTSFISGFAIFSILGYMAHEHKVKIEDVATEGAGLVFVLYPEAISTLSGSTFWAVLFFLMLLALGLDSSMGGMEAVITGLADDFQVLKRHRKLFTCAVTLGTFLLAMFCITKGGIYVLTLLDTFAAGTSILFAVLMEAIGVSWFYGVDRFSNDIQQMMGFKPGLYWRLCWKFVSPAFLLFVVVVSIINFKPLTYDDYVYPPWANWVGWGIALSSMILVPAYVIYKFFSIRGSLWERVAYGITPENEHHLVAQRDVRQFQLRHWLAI

Biological target: NE uptake (Rattus norvegicus, UniProt Q63380)
Assay: Neurotransmitter uptake inhibition: NE uptake, crude synaptosomal preparation
Format: biochemical
Protocol: Male Sprague-Dawley rats (180-260 g, Charles River) were used in all neurochemical assays. Rats were housed in temperature-controlled quarters on a 12 hr light/12 hr dark cycle with free access to food and water.
Neurotransmitter Uptake Inhibition
Uptake experiments were performed using a crude synaptosomal preparation made from the brain tissue of adult male Sprague-Dawley rats. The cortex of 1 rat for NE and 5-HT uptake was removed on ice and homogenized in 20 volumes of 0.32 M sucrose/g tissue weight using a Potter-Elvehjem teflon homogenizer (3 strokes at 840 rpm). The homogenate was then centrifuged for 12 minutes at 1,000×g at 0-4° C. The resulting supernatant was decanted into a chilled glass beaker and kept on ice until assayed. Protein concentration was determined by the method of Lowry et al. (1).
For these experiments, all compounds were run in duplicate in concentrations of 0.003-30.0 μM. Each tube received buffer (790 μl in drug tubes, 800 μl in control tubes), 10 μl of drug or standard. (0.1 μM DMI for NE uptake and 3.0 μM zimelidine HCl for 5-HT uptake), 100 μl isotope (0.1 μM ^3H—NE and 0.05 μM ^14C-5-HT), and 100 μl tissue. […] Filters were added to 10 ml Hydrofluor, shaken for 15 minutes and counted in a Packard 460CD scintillation counter equipped with dual-label dpm data reduction. Results were expressed as pmol uptake/mg protein/min.

COc1ccc(C(CN(C)C)C2(O)CCCCC2)cc1 (racemic) [Venlafaxine, (R/S)-1-[2-(dimethylarino)-1-(4-methoxyphenyl)ethyl]cyclohexanol, reference compound]
IC50: 720 nM
